Test results as given in patent US5096884A, “Glidobactin PF-1 peptide antibiotics” (Bristol-Myers Squibb Company, priority 1990, dated 1992).
Like-named read-outs stand apart in the source and are kept apart here.

Test system: B16 Melanoma (ip)
Conditions: QD1→9, ≥125% significant
Description: In vivo antitumor activity of glidobactin PF-1 was determined in experimental mouse tumor systems. Female CDF1 and male BDF1 mice were intraperitoneally inoculated with 0.4 mL of diluted ascitic fluid containing 10^6 lymphocytic leukemia P388 cells and 0.5 mL of 10% melanotic melanoma B16 brei, respectively. Test compounds were intraperitoneally administered daily for 9 days starting from 1 day after the tumor implantation.

`CO[C@@]12[C@H](COC(N)=O)C3=C(C(=O)C(C)=C(N)C3=O)N1C[C@@H]1N[C@@H]12` [Mitomycin C] was tested, and the “T/C % of MST” value (B16, 0.13 mg/kg/day) was 100%, the “T/C % of MST” value (B16, 0.25 mg/kg/day) was 134% and the “T/C % of MST” value (B16, 0.5 mg/kg/day) was 166%. The “T/C % of MST” value (B16, 1 mg/kg/day) was 200%.
